# scFv variants of Ab-14 (light chain) against a SARS-CoV-2 spike peptide

Data: MIT Lincoln Laboratory AlphaSeq set, Li et al. 2023, doi:10.1038/s41467-023-39022-2, as distributed in FLAb.

The target is the same throughout: PDVDLGDISGINAS, from the HR2 region of SARS-CoV-2 spike.

The variants keep the heavy chain, the linker and the frameworks of Ab-14 (scFv order VH, the linker GGGGSGGGGSGGGGS, VL).
VH: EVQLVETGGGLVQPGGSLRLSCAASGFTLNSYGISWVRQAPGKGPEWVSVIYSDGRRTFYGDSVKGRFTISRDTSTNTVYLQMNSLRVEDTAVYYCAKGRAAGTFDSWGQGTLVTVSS
VL: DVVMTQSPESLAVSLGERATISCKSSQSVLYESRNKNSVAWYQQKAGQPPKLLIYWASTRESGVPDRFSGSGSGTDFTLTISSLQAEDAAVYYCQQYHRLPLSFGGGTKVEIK

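The starting antibody came from a phage panning campaign against this peptide. These sequences belong to a second round, designed from the earlier measurements on random variants of the parent. Several design methods are mixed in this list. The scFvs were displayed on barcoded MATa yeast, the peptide on MATalpha yeast. The frequency of each diploid, read from paired DNA barcodes, reflects how well the two displayed proteins bind. Scores were corrected for input abundance and mapped to Kd with protein pairs of known affinity run in the same pool. Each pool was mated in six replicate cultures.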

Changes read parent residue, position, new residue, counted from the first residue of the VL shown.
Variants here have at most six changes.
The read-out is the apparent dissociation constant on a log10 scale (nM): the lower, the stronger.
The mean shown is taken over the replicates in which the pair was detected.
Where no diploid with the target was found in any replicate, the entry reads "nd": below detection, most likely a poor binder, though not proof of it.
The parent sequence was in this pool as ten entries: three were never detected, three once, and four in most replicates, with averages from 0.34 to 2.37.
A sequence measured in both rounds can read differently, since the two assays cover different ranges.
Three control strains display no target. For all light chain designs, 4% of the pairings with them gave a signal, with a median of 2.64 and one signal in twenty below 1.59, so weak values seen in few replicates may be background.
The authors' rule: three or more of the six replicates give a measured affinity, fewer mean a poor binder.

For S25Y/S28G/W56G, the assay gave 0.09 (6 of 6 replicates). With S25V/S26P/V29N/K36A/W56N/E61L the result was -0.09 (6 of 6 replicates). The variant S25M/R34A/N35E/N37I/P101K gave nd (0 of 6 replicates). The variant S25L/V29E/L30D/W56N showed 0.20 (6 of 6 replicates). The variant K24A/S25I/L30E/N35D/W56N gave 0.00 (6 of 6 replicates). For S25V/W56Y, the assay gave 0.09 (6 of 6 replicates). The variant S25I/S26A/V29Y/S33D/W56N/E61L showed 0.08 (6 of 6 replicates).

With S25I/V29G/E61S/Q96N the result was 1.21 (6 of 6 replicates). The variant Q27L/S28Q/W56S/L102C gave 4.84 (1 of 6 replicates). The variant Y31G/W56S showed 2.18 (6 of 6 replicates). For S25Q/Y31Q/W56D, the assay gave -0.21 (6 of 6 replicates). With S25M/S26E/S28G/N37G/W56Q/T59V the result was -0.39 (6 of 6 replicates). For S25E/V29D/W56G, the assay gave 0.43 (6 of 6 replicates). With W56D/T59I the result was 0.70 (6 of 6 replicates).

The variant S25L/S28K/W56N showed 0.05 (6 of 6 replicates). For Q27M/V29H/W56G, the assay gave 0.87 (6 of 6 replicates). With S26M/Q27D/T59R/Q96S/R99G the result was 2.83 (4 of 6 replicates). The variant S25L/S26Q/W56D showed -0.19 (6 of 6 replicates). With K24Q/S25M/S28P/N35L/S62R/Y97T the result was 4.88 (1 of 6 replicates). The variant S25E/V29W/L30D/W56G showed -0.12 (6 of 6 replicates). With S25M/Y31N/W56D/Q96V the result was 0.29 (6 of 6 replicates).

The variant Q27Y/S58D/T59I/E61S/H98I/S103L showed 1.55 (6 of 6 replicates). The variant S25I/S26E/W56L gave 0.29 (6 of 6 replicates). For S25L/S33E/W56H/T59Q, the assay gave -0.40 (6 of 6 replicates). For V29W/W56E, the assay gave -0.29 (6 of 6 replicates). The variant S25N/V29D/S38P/W56Q/L100T showed nd (0 of 6 replicates). With S25L/V29E/W56N/S62V the result was 0.02 (6 of 6 replicates). The variant S26D/L102I showed 2.18 (5 of 6 replicates).

With R34L/W56S/H98C the result was 0.71 (6 of 6 replicates). For S25L/L30D/W56D/S62Q, the assay gave 0.46 (6 of 6 replicates). The variant V29Y/L30Y/E32T/R34E showed 1.62 (6 of 6 replicates). The variant N37G/S58N gave 2.07 (1 of 6 replicates). The variant S26N/H98V showed 2.07 (5 of 6 replicates). The variant S25M/W56G/S103Q showed -0.46 (6 of 6 replicates). For V29W/L30P/W56G, the assay gave 0.23 (6 of 6 replicates).

The variant S28D/L30P/W56D/T59H showed 0.03 (6 of 6 replicates). The variant Q27P/K36E/W56Y/A57G showed 0.44 (6 of 6 replicates). With S25L/S26E/V29E/L30E/W56N/T59Q the result was 0.07 (6 of 6 replicates). The variant S25H/Y31I/W56D gave -0.31 (6 of 6 replicates). For S58F/E61M, the assay gave nd (0 of 6 replicates). For S25L/Q27W/W56N, the assay gave -0.16 (6 of 6 replicates). With S33M/K36V/N37D/W56D/R60H/E61A the result was 0.81 (6 of 6 replicates).

The variant S25V/S26P/V29W/W56N showed -0.34 (6 of 6 replicates).

A selection of 5 entries from above:

S25M/W56G/S103Q: -0.46 (6 of 6 replicates).
S33M/K36V/N37D/W56D/R60H/E61A: 0.81 (6 of 6 replicates).
V29W/W56E: -0.29 (6 of 6 replicates).
S25V/S26P/V29N/K36A/W56N/E61L: -0.09 (6 of 6 replicates).
S25M/R34A/N35E/N37I/P101K: nd (0 of 6 replicates).